The record followed here is PMC6680510, “Benzotriazine Di-Oxide Prodrugs for Exploiting Hypoxia and Low Extracellular pH in Tumors” (Molecules, 2019).

Each structure is given as a SMILES string.

The test system of this assay is FaDu cells. Kind of assay: IC50 assay (inhibition of proliferation, 4 h exposure, SRB). It is filed as cell-based.

On to `O=C(O)CCCc1ccc(N(CCCl)CCCl)cc1` [Compound 1, chlorambucil], for which the “ACR (oxic IC50/anoxic IC50)” value (pHe 6.5) was 1.41 ± 0.42 and the “ACR (oxic IC50/anoxic IC50)” value (pHe 7.4) stood at 1.14 ± 0.14.
